Molecules are shown by their SMILES.

The chains behind the UniProt entries cited, without tags or fusion partners.
UniProt P05177, whole entry: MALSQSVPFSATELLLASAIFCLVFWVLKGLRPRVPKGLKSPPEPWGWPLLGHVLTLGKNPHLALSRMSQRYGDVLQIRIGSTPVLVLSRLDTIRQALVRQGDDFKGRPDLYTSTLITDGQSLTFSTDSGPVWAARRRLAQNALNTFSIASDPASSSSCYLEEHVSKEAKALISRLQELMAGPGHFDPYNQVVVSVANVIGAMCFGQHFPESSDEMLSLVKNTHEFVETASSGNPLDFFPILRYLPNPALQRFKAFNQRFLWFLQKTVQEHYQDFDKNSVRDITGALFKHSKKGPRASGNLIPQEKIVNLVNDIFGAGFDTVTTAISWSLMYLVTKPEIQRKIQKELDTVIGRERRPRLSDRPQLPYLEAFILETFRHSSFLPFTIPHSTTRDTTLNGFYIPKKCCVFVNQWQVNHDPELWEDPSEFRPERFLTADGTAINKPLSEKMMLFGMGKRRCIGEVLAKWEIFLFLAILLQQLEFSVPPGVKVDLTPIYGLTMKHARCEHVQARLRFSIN

For this data set, the target named is P-4501A2 (Homo sapiens, UniProt P05177). In words: Inhibition of P-450 mediated caffeine metabolism to paraxanthine in human liver microsomes. Conditions: summary of Table 1. Here is the method:
The model system directly measures inhibition of P-4501A2-mediated metabolism in the physiological environment of human liver microsomes. Measurement of drug metabolism in a microsome system is directly predictive of liver metabolism in vivo. Thus, microsome data can be used to estimate the in vivo circulating half-life of compounds that are primarily metabolized in the liver.
Microsomes were prepared by standard techniques from four human livers. […] Three sets of enantiomers, CT2408 R&S, CT2410 R&S, and CT2412 R&S, were evaluated for inhibition of caffeine metabolism to paraxanthine by P-450.
Briefly, the inventive compounds were preincubated in microsomes with NADPH at concentrations of 100 μM for 0, 5, and 20 minutes. Samples containing only buffer, LSF, or furafylline were used as controls.
At the end of the preincubation period, the samples were diluted in a solution of NADPH and caffeine. The samples then were incubated for twenty minutes. Hydroxyethyl theophylline was added as an internal standard, and the samples were analyzed for paraxanthine via HPLC. […]
Thirty microliters of reconstituted sample were then applied to an Hewlett Packard 1050 HPLC system equipped with a Rainin Microsorb™ 4.6×100 mm column with 3 μm C-18 packing. […] Column eluent was monitored at 285 nm and paraxanthine, HET, and caffeine respectively eluted at 5.3, 6.6, and 9.8 minutes.
Background: Liver microsomes are a subcellular fraction often used to study metabolism.

Turning to `Cc1nc2c([nH]1)c(=O)n(C)c(=O)n2Cc1ccco1` [FRF, 1,8-dimethyl-3-(2'furfuryl)-methylxanthine, reference compound], the “inhibition of P-450-mediated caffeine metabolism (in words)” value is on record as “showed good inhibition”.
